Among the data in ChEMBL document CHEMBL1137403, “Discovery of 2-[4-{{2-(2S,5R)-2-cyano-5-ethynyl-1-pyrrolidinyl]-2-oxoethyl]amino]- 4-methyl-1-piperidinyl]-4-pyridinecarboxylic acid (ABT-279): a very potent, selective, effective, and well-tolerated inhibitor of dipeptidyl peptidase-IV, useful for the treatment of diabetes” (J Med Chem, 2006) are Ki values, retold here.

Protein sequences, listed by entry. Tags and fused reporters are not part of them.
UniProt P27487, whole entry: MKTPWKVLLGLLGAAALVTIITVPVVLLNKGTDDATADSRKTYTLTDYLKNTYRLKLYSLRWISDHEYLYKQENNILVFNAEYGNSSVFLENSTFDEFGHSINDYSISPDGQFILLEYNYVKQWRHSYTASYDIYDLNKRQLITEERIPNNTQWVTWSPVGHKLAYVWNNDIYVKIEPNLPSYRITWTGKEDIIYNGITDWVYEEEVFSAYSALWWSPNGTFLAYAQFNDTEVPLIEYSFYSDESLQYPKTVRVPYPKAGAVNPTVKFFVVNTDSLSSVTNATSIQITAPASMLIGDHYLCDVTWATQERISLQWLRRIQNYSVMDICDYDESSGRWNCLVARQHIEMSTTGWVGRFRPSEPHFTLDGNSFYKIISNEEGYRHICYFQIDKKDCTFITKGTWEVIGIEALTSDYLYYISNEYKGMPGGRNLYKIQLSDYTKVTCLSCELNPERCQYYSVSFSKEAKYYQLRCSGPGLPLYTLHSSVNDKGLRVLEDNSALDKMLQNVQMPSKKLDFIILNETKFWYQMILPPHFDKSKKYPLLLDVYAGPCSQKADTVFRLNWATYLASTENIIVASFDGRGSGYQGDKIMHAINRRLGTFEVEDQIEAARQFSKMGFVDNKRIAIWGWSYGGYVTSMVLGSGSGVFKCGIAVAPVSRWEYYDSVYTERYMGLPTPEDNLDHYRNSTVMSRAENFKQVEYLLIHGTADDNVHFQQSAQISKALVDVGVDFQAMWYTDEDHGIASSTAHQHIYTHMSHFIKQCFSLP

The target in the assay is Dipeptidyl peptidase 4 (Homo sapiens, UniProt P27487).

A word on the Ki: it is the equilibrium dissociation constant of an inhibitor or competing ligand from its target. High values mean lower affinity, low ones higher affinity. For `CCC(C)[C@H](N)C(=O)N1[C@H](C#N)CC[C@H]1c1ccccc1` (stereo partly specified), the inhibition constant Ki is > 30 µM.
